In patent US11524051B2, “Methods of treating fungal infections” (United States of America as represented by the Secretary of …, priority 2017, dated 2022) one finds hemolytic rates data, which are given here for one compound.

Molecules are shown by their SMILES.

The data set relates to human red blood cells. The data set is described as follows: Hemolysis assay. Type of data set: cell-based. To be noted: 200 μg/mL, 1 hour at 37° C., normalized to Triton X-100. Here is the method:
The hemolytic activity of BmKn2, dBmKn2, Kn2-7, dKn2-7, and melittin was assessed using human red blood cells (RBCs). The RBCs were prepared from human whole blood (BioreclamationIVT, Westbury, N.Y., USA) according to a previous report (Evans et al, J. Vis. Exp. (73), 50166, doi:10.3791/50166 (2013)). In brief, human whole blood was centrifuged, and the RBCs were washed with PBS 3-4 times and then diluted 1:20 of the original volume in PBS. Peptides at various concentrations from 0-400 μg/mL in PBS were mixed with an equal volume of the diluted RBCs in a 96-well microtiter plate and allowed to incubate for 1 hour at 37° C. The plate was then centrifuged at 500 g for 5 minutes and 100 μL of the supernatant was transferred to a 96-well, transparent, flat-bottomed plate. Sample absorbances were read at 490 nm using a BioTek Synergy HT plate reader (BioTek, Winooski, Vt.). PBS was used as a negative control (blank), and 1% Triton X-100 was used as a positive control for 100% hemolysis. The percent hemolysis for the unknown samples was calculated according to the following equation: […]

On to `CC[C@H](C)[C@H](NC(=O)CN)C(=O)NCC(=O)N[C@@H](C)C(=O)N[C@H](C(=O)N[C@@H](CC(C)C)C(=O)N[C@@H](CCCCN)C(=O)N[C@H](C(=O)N[C@@H](CC(C)C)C(=O)N[C@H](C(=O)N[C@H](C(=O)NCC(=O)N[C@@H](CC(C)C)C(=O)N1CCC[C@H]1C(=O)N[C@@H](C)C(=O)N[C@@H](CC(C)C)C(=O)N[C@H](C(=O)N[C@@H](CO)C(=O)N[C@@H](Cc1c[nH]c2ccccc12)C(=O)N[C@H](C(=O)N[C@@H](CCCCN)C(=O)N[C@@H](CCCNC(=N)N)C(=O)N[C@@H](CCCCN)C(=O)N[C@@H](CCCNC(=N)N)C(=O)N[C@@H](CCC(N)=O)C(=O)N[C@@H](CCC(N)=O)C(N)=O)[C@@H](C)CC)[C@@H](C)CC)[C@@H](C)O)[C@@H](C)O)C(C)C)C(C)C` [melittin, reference compound], for which the hemolytic rates is given as about 100%.
